Molecular target: rat 5HT transporter (rSERT) (Rattus norvegicus, UniProt P31652)
Assay: [3H]5HT transport assay in HeLa cells transfected with BS4E-10 cDNA (rSERT)
Type: cell-based

Sequences of proteins named here, by UniProt entry; tags and fusion partners are left off.
UniProt P31652, whole entry: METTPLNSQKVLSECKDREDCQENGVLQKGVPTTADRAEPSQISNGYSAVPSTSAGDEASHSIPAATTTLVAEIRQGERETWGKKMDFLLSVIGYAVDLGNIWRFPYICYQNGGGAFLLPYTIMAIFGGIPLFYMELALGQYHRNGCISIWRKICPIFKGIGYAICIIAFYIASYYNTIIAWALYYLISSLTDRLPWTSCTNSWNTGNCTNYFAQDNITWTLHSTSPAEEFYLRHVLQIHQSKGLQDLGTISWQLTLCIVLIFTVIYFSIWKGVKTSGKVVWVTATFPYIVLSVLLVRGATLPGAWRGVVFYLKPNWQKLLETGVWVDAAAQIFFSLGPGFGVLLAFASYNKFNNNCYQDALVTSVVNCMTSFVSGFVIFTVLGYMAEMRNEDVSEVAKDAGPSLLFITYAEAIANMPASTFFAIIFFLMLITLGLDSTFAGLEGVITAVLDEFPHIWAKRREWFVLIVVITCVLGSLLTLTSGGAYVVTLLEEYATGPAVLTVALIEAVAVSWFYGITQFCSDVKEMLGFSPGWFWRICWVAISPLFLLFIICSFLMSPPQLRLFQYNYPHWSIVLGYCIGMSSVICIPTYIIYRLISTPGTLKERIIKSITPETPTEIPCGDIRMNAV

SMILES | antagonism of 5HT transport (in words)
CN(C)CCCC1(c2ccc(F)cc2)OCc2cc(C#N)ccc21 (stereo not drawn) [citalopram] | selectively and potently antagonized
Fc1ccc([C@@H]2CCNC[C@H]2COc2ccc3c(c2)OCO3)cc1 [paroxetine] | selectively and potently antagonized
CNCCC(Oc1ccc(C(F)(F)F)cc1)c1ccccc1 (stereo not drawn) [fluoxetine] | selectively and potently antagonized

Reference: patent US5418162A, “Serotonin transporter CDNA” (Duke University, priority 1992, dated 1995)
